From PubChem BioAssay AID583 (Sanford-Burnham Center for Chemical Genomics, 2007)
Where “and” joins values, the source holds several entries; their conditions need not be identical. Equal entries are not always repeated. The entries are a selection whose mix differs from that of the whole data set. Calls of active or inactive are those of the source. Cut-off read from the data, not from the text of the source: active = displacement above about 50%; inactive = the rest.

Sequences of proteins named here, by UniProt entry; tags and fusion partners are left off.
UniProt P0DMV8, whole entry: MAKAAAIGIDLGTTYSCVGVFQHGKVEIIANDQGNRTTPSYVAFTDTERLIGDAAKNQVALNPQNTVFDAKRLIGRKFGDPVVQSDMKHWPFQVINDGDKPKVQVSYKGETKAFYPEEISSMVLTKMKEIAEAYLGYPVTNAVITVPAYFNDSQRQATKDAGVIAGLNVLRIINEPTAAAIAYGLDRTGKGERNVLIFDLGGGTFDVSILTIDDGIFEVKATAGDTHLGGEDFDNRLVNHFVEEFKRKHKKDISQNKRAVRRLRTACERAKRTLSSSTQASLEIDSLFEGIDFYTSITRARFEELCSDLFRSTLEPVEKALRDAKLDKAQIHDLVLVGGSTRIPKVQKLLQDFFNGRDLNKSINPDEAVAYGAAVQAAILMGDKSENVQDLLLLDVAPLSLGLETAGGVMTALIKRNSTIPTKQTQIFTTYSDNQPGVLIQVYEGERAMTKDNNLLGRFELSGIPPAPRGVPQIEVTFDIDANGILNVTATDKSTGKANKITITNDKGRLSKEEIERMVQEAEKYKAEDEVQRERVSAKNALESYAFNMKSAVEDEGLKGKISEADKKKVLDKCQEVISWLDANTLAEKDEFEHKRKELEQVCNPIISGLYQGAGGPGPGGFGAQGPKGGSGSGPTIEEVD

Each compound was assayed against Heat shock 70 kDa protein 1A (Homo sapiens) (UniProt P0DMV8) (assay: small molecules displacing fluorescent ligand from Hsp70 – biochemical, fluorescence polarization, primary screen (AID 583;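 note: plate controls were vehicle for no effect and reference ligand for full effect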)). Conditions: Hsp70 fluorescence polarization probe displacement, mP; at 20 µM; active compounds read high.

Row | Structure (SMILES) | displacement
1 | Cc1nc2ccc3ccccc3c2s1.O=[N+]([O-])c1cc([N+](=O)[O-])c(O)c([N+](=O)[O-])c1 | inactive: -2.8%
2 | COc1ccccc1OP(C)(=O)Nc1c(C)cccc1C (stereo unspecified) | inactive: 0.1%
3 | CP(=O)(Oc1ccccc1)Oc1ccccc1 | inactive: -0.9%
4 | Cc1cc(C)cc(OP(C)(=O)Nc2ccccn2)c1 (stereo unspecified) | inactive: 2.7%
5 | CP(=O)(Oc1ccc(Cl)cc1)Oc1ccc(Cl)cc1 | inactive: -0.7%
6 | Cc1ccc(C)c(NP(C)(=O)Oc2ccccc2)c1 (stereo unspecified) | inactive: 0.9%
7 | COc1ccc(OP(C)(=O)Nc2cccc(F)c2)cc1 (stereo unspecified) | inactive: -0.9%
8 | COc1ccccc1OP(C)(=O)Nc1ccc(C)cc1 (stereo unspecified) | inactive: -2.2%
9 | Cc1ccc(NP(C)(=O)Oc2ccccc2)c(C)c1 (stereo unspecified) | inactive: 3.8%
10 | CN(C)CCOC(=O)C(O)(c1ccccc1)c1ccccc1 | inactive: -0.9%
11 | CP(=S)(Nn1cnnc1)Oc1ccccc1 (stereo unspecified) | inactive: 2.8%
12 | CP(=O)(NC(=O)Nc1ccccc1)Oc1ccccc1 (stereo unspecified) | inactive: 3%
13 | CP(=O)(Oc1ccccc1F)Oc1ccccc1F | inactive: -0.4%
14 | CP(=O)(Nc1ccccn1)Oc1ccc(Cl)cc1 (stereo unspecified) | inactive: 6.4%
15 | CCOP(C)(=S)SCC(=O)NC(C)C(=O)O (stereo unspecified) | inactive: -5.1% and inactive: -4.9%
16 | CP(=O)(Oc1ccccc1)N1CCOC1=O (stereo unspecified) | inactive: -2.9%
17 | COc1ccccc1OP(C)(=O)Nc1c(C)n(C)n(-c2ccccc2)c1=O (stereo unspecified) | inactive: -2.8%
18 | CCN(CC)CC(O)COC(=O)C(O)(c1ccccc1)C1CCCCC1 (stereo unspecified) | inactive: -3.9%

Row | Structure (SMILES) | displacement
19 | CP(=O)(Nc1ccc(Cl)cc1)Oc1ccc(F)cc1 (stereo unspecified) | inactive: 8%
20 | CC(C)(C)c1ccc(OP(C)(=O)O)cc1 | inactive: 7.5%
21 | CP(=O)(OC12CC3CC(CC(C3)C1)C2)OC12CC3CC(CC(C3)C1)C2 | inactive: -2.4%
22 | COc1ccccc1OP(C)(=O)Nc1ccc(C)c(C)c1 (stereo unspecified) | inactive: -3.6%
23 | Cc1nc2ccc3ccccc3c2o1.O=[N+]([O-])c1cc([N+](=O)[O-])c(O)c([N+](=O)[O-])c1 | inactive: -0.4%
24 | CN(C)CCOC(=O)C(O)(c1ccccc1)C1CCCC1 (stereo unspecified) | inactive: -1.4%
25 | COc1ccc(OP(C)(=O)Nc2ccccn2)cc1 (stereo unspecified) | inactive: 2.7%
26 | CP(=O)(Nc1ccccn1)Oc1ccccc1 (stereo unspecified) | inactive: 5.1%
27 | COc1ccccc1OP(C)(=O)Nc1ccc(C)cc1C (stereo unspecified) | inactive: -3.6%
28 | Cc1c(NP(C)(=O)Oc2ccc(C(C)C)cc2)c(=O)n(-c2ccccc2)n1C (stereo unspecified) | inactive: -0.8%
29 | CP(=O)(Nc1ccccc1F)Oc1ccccc1 (stereo unspecified) | inactive: 4.4%
30 | CP(=O)(Nc1ccccc1)Oc1ccc(F)cc1 (stereo unspecified) | inactive: -6%
31 | CCN(CC)CCCOC(=O)C(O)(c1ccccc1)C1CCCCC1 (stereo unspecified) | inactive: -5%
32 | CN(C)CCOC(=O)C(O)(c1ccccc1)C1CCCCC1 (stereo unspecified) | inactive: 9.1%
33 | CP(=O)(Oc1ccc(F)cc1)Oc1ccc(F)cc1 | inactive: 4.5%
34 | CCOP(C)(=S)SCC(=O)NC(C)(CC)C(=O)O (stereo unspecified) | inactive: -3.5%
35 | Cc1ccccc1NP(C)(=O)Nc1ccccc1C | inactive: -3.6%
36 | CP(=O)(Nc1ccc2c(c1)OCCO2)Oc1ccccc1 (stereo unspecified) | inactive: -0.6%
